Data published in patent US20110263664A1, “Inhibitors of PIM-1 Protein Kinases, Compositions and Methods for Treating Prostate Cancer” (MUSC FOUNDATION FOR RESEARCH DEVELOPMENT, priority 2007, published 2011).

Amino acid sequences for entries named in this document (tags omitted). A change or cut given only in a name is not applied to a line headed by its entry.
UniProt Q9P1W9: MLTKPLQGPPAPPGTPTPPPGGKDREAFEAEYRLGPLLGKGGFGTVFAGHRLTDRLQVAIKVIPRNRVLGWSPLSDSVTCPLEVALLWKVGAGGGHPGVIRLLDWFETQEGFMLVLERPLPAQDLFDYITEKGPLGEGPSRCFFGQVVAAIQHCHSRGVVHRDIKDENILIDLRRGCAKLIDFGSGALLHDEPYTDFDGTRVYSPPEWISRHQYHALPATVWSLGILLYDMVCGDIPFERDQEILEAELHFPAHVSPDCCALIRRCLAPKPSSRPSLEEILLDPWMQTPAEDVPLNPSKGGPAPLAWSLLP
UniProt P11309, whole entry: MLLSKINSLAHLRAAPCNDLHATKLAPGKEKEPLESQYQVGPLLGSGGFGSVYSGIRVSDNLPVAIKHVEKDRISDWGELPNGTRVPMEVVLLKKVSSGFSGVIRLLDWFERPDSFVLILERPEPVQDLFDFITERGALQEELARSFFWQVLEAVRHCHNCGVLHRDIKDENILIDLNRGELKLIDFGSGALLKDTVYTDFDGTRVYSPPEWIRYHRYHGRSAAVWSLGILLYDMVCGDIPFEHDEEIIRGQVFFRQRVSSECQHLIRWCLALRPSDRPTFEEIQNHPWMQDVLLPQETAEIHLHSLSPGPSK

Experiments:
[1] = biological target: PIM2 (Homo sapiens, UniProt Q9P1W9); experiment: Pim-2 kinase IC50, Table 2; format: biochemical
[2] = biological target: PIM1 (Homo sapiens, UniProt P11309); experiment: Pim-1 protein kinase assay (Procedure 1), Table 1; format: biochemical; design: purchased Upstate 14-573

IC50 [1] [nM] | IC50 [2] [nM] | Structure (SMILES)
90 ± 40 | – | O=C1NC(=O)/C(=C/c2ccc(Br)cc2)S1 [Compound D11]
– | 13 ± 10 | O=C1NC(=O)/C(=C/c2ccc(F)cc2)S1 [Compound D9]
– | 300 ± 200 | O=C1NC(=O)/C(=C/c2ccc(OC(F)(F)F)cc2)S1 [Compound D19]
40 | – | COc1cccc(/C=C2\SC(=O)NC2=O)c1 [Compound D6]
– | 60 ± 20 | Cc1ccc(/C=C2\SC(=O)NC2=O)cc1 [Compound D12]
